# According to publication PMC7179958, “Prediction of Clinical Transporter‐Mediated Drug–Drug Interactions via Comeasurement of Pitavastatin and Eltrombopag in Human Hepatocyte Models” (CPT: Pharmacometrics & Systems Pharmacology, 2020):
# Where “and” joins values, the source holds several entries; their conditions need not be identical. Equal values may be shown once.
# Test system: human hepatocytes
# Assay: Uptake of pitavastatin and eltrombopag in cryopreserved human hepatocytes (oil spin method), comeasurement, micro‐rate constant mechanistic model
# Type: in vitro ADME
# Method: Human hepatocytes were obtained from BioIVT (Brussels, Belgium; lot number: LYB; 10 donor LiverPool (8 Caucasians, 1 African American, and 1 Hispanic) and thawed according to supplier guidelines in Leibovitz L15 medium. Hepatocytes were kept on ice prior to use and were used within 3 hours of defrosting.
# Hepatocytes (viability 84–87%) were preincubated in Leibovitz L15 medium at 1.5 × 10^6 cells for 15 minutes at 37 °C with either 0.1% DMSO or 45 nmol/mL eltrombopag. Incubations were started by the addition of pitavastatin (0.3–100 nmol/mL, 1 × 10^6 cells, 0.35% DMSO, 30 nmol/mL eltrombopag final), and 100 µL samples taken at 0.25–30 minutes. Cells were separated using an oil spin method similar to the literature. ^11 , ^17 After separation, the tubes were frozen on dry ice and the bottom layer was cut off. Pitavastatin and eltrombopag were extracted in a stop solution prior to ultra‐performance liquid chromatography–high‐resolution mass spectrometry analysis (see the Supplemental Material for full experimental and sample extraction methods).
# The bottom layer concentrations of pitavastatin and eltrombopag were converted to a cellular concentration using a cellular volume (V cell) of 3 µL/1 × 10^6 human hepatocytes: ^18 (1) cellnmol/mL=Bottom layer×15.3μL/Vcell/100 where V cell /1 × 10^5 cells was 0.3 µL, and the volume of the bottom layer of cesium chloride was 15 µL. A dilution factor of 100 was used to scale from pmol/mL/1 × 10^5 cells to nmol/mL/1 × 10^6 cells.
# The final chosen mechanistic model (model 1 with the comeasurement of pitavastatin and eltrombopag; Table 1 ) was based on the outcome of the structural identifiability analysis and goodness‐of‐fit statistics (Bayesian information criterion, and the weighted Bayesian information criterion, ^21 and the sum of the relative mean square root error (percentage RMSRE); see Supplemental Material ). Model 1 was described using a set of ODEs representing the following: the amount of pitavastatin (X = substrate (S) or pitavastatin (P)) and eltrombopag (X = inhibitor (I) or eltrombopag (E)) in the medium (X 1), the amount bound to transporter (X 2), and the intracellular amount (X 3). Passive rate constants for movement into and out of the cell (k f.X and k bX, respectively) as well as uptake transporter‐mediated rate constants for association to the transporter (k aX) and dissociation (k dX) and translocation (k tX) from the transporter into the medium and cell, respectively. Metabolism of pitavastatin in the cell was through an elimination rate constant (k e). The sets of ODEs for all the models (models 1–4; Table 1 ) tested for structural identifiability and used for parameter estimation are included in the Supplemental Material .
# Parameter estimation was conducted within Monolix 2018 R2 (Lixoft, Antony, France) for each concentration and experiment as an individual data set, where to ensure positivity, a log‐normal distribution was assumed for each parameter, with a proportional residual error model for the observations. Because of the large number of parameters to be estimated in the combined pitavastatin and eltrombopag mechanistic model, the initial estimates for pitavastatin and eltrombopag each were obtained for the micro‐rate constant models (no macro‐rate constant estimates could be obtained for eltrombopag alone for transporter‐mediated uptake).
# Hepatocyte Incubations. 0.4 mL of hepatocytes was diluted 1:1 with Leibovitz either containing DMSO blank (0.1 % for pitavastatin or 0.25 % for eltrombopag alone) or eltrombopag at 90 nmol/mL and pre-incubated at 1.5x10^6 cells/mL for 15 min at 37 °C in 7 mL glass scintillation vials (PerkinElmer, Vasby, Sweden) in a shaking water bath (Grant Instruments, Cambridge, UK). Pitavastatin was dissolved and serially diluted in DMSO to give 0.12, 0.4, 1.2, 4, 12 and 40 µmol/mL, and then diluted 400-fold into 37 °C Leibovitz L15 medium. […]
smiles,measurement,setting,value
"O=C(O)C[C@H](O)C[C@H](O)/C=C/c1c(C2CC2)nc2ccccc2c1-c1ccc(F)cc1 [pitavastatin, pitavastatin calcium]",DV = amount of measured pitavastatin and/or eltrombopag,"ID 31, pitavastatin AMT 30 nmol at TIME 15, TIME 25 min",59.98 nmol
same,DV = amount of measured pitavastatin and/or eltrombopag,"ID 31, pitavastatin AMT 30 nmol at TIME 15, TIME 45 min",87.76 nmol
same,DV (pitavastatin uptake into hepatocytes),"ID 32, AMT 30, TIME 15.25, DVID 2",62.23
same,DV (pitavastatin uptake into hepatocytes),"ID 32, AMT 30, TIME 15.5, DVID 2",75.26
same,DV (pitavastatin uptake into hepatocytes),"ID 32, AMT 30, TIME 16, DVID 2",114.22
same,DV (pitavastatin uptake into hepatocytes),"ID 32, AMT 30, TIME 17, DVID 2",132.18
same,DV (pitavastatin uptake into hepatocytes),"ID 32, AMT 30, TIME 20, DVID 2",159.89
same,DV (pitavastatin uptake into hepatocytes),"ID 32, AMT 30, TIME 25, DVID 2",163.93
same,DV (pitavastatin uptake into hepatocytes),"ID 32, AMT 30, TIME 45, DVID 2",176.26
same,DV = amount of measured pitavastatin and/or eltrombopag,"ID 32, pitavastatin AMT 30 nmol at TIME 15, TIME 15.25 min",62.23 nmol
same,DV = amount of measured pitavastatin and/or eltrombopag,"ID 32, pitavastatin AMT 30 nmol at TIME 15, TIME 15.5 min",75.26 nmol
same,DV = amount of measured pitavastatin and/or eltrombopag,"ID 32, pitavastatin AMT 30 nmol at TIME 15, TIME 16 min",114.22 nmol
same,DV = amount of measured pitavastatin and/or eltrombopag,"ID 32, pitavastatin AMT 30 nmol at TIME 15, TIME 17 min",132.18 nmol
same,DV = amount of measured pitavastatin and/or eltrombopag,"ID 32, pitavastatin AMT 30 nmol at TIME 15, TIME 20 min",159.89 nmol
same,DV = amount of measured pitavastatin and/or eltrombopag,"ID 32, pitavastatin AMT 30 nmol at TIME 15, TIME 25 min",163.93 nmol
same,DV = amount of measured pitavastatin and/or eltrombopag,"ID 32, pitavastatin AMT 30 nmol at TIME 15, TIME 45 min",176.26 nmol
same,DV (pitavastatin uptake into hepatocytes),"ID 33, AMT 30, TIME 15.25, DVID 2",26.77
same,DV (pitavastatin uptake into hepatocytes),"ID 33, AMT 30, TIME 15.5, DVID 2",38.61
same,DV (pitavastatin uptake into hepatocytes),"ID 33, AMT 30, TIME 16, DVID 2",45.83
same,DV (pitavastatin uptake into hepatocytes),"ID 33, AMT 30, TIME 17, DVID 2",61.09
same,DV (pitavastatin uptake into hepatocytes),"ID 33, AMT 30, TIME 20, DVID 2",81.99
same,DV (pitavastatin uptake into hepatocytes),"ID 33, AMT 30, TIME 25, DVID 2",73.56
same,DV (pitavastatin uptake into hepatocytes),"ID 33, AMT 30, TIME 45, DVID 2",78.92
same,DV = amount of measured pitavastatin and/or eltrombopag,"ID 33, pitavastatin AMT 30 nmol at TIME 15, TIME 15.25 min",26.77 nmol
same,DV = amount of measured pitavastatin and/or eltrombopag,"ID 33, pitavastatin AMT 30 nmol at TIME 15, TIME 15.5 min",38.61 nmol
same,DV = amount of measured pitavastatin and/or eltrombopag,"ID 33, pitavastatin AMT 30 nmol at TIME 15, TIME 16 min",45.83 nmol
same,DV = amount of measured pitavastatin and/or eltrombopag,"ID 33, pitavastatin AMT 30 nmol at TIME 15, TIME 17 min",61.09 nmol
same,DV = amount of measured pitavastatin and/or eltrombopag,"ID 33, pitavastatin AMT 30 nmol at TIME 15, TIME 20 min",81.99 nmol
same,DV = amount of measured pitavastatin and/or eltrombopag,"ID 33, pitavastatin AMT 30 nmol at TIME 15, TIME 25 min",73.56 nmol
same,DV = amount of measured pitavastatin and/or eltrombopag,"ID 33, pitavastatin AMT 30 nmol at TIME 15, TIME 45 min",78.92 nmol
same,DV (pitavastatin uptake into hepatocytes),"ID 34, AMT 100, TIME 15.25, DVID 2",83.21
same,DV (pitavastatin uptake into hepatocytes),"ID 34, AMT 100, TIME 15.5, DVID 2",84.23
same,DV (pitavastatin uptake into hepatocytes),"ID 34, AMT 100, TIME 16, DVID 2",149.55
same,DV (pitavastatin uptake into hepatocytes),"ID 34, AMT 100, TIME 17, DVID 2",162.02
same,DV (pitavastatin uptake into hepatocytes),"ID 34, AMT 100, TIME 20, DVID 2",195.87
same,DV (pitavastatin uptake into hepatocytes),"ID 34, AMT 100, TIME 25, DVID 2",258.45
same,DV (pitavastatin uptake into hepatocytes),"ID 34, AMT 100, TIME 45, DVID 2",241.53
same,DV = amount of measured pitavastatin and/or eltrombopag,"ID 34, pitavastatin AMT 100 nmol at TIME 15, TIME 15.25 min",83.21 nmol
same,DV = amount of measured pitavastatin and/or eltrombopag,"ID 34, pitavastatin AMT 100 nmol at TIME 15, TIME 15.5 min",84.23 nmol
same,DV = amount of measured pitavastatin and/or eltrombopag,"ID 34, pitavastatin AMT 100 nmol at TIME 15, TIME 16 min",149.55 nmol
same,DV = amount of measured pitavastatin and/or eltrombopag,"ID 34, pitavastatin AMT 100 nmol at TIME 15, TIME 17 min",162.02 nmol
same,DV = amount of measured pitavastatin and/or eltrombopag,"ID 34, pitavastatin AMT 100 nmol at TIME 15, TIME 20 min",195.87 nmol
same,DV = amount of measured pitavastatin and/or eltrombopag,"ID 34, pitavastatin AMT 100 nmol at TIME 15, TIME 25 min",258.45 nmol
same,DV = amount of measured pitavastatin and/or eltrombopag,"ID 34, pitavastatin AMT 100 nmol at TIME 15, TIME 45 min",241.53 nmol
same,DV (pitavastatin uptake into hepatocytes),"ID 36, AMT 100, TIME 15.25, DVID 2",56.55
same,DV (pitavastatin uptake into hepatocytes),"ID 36, AMT 100, TIME 15.5, DVID 2",71.62
same,DV (pitavastatin uptake into hepatocytes),"ID 36, AMT 100, TIME 16, DVID 2",101.21
same,DV (pitavastatin uptake into hepatocytes),"ID 36, AMT 100, TIME 17, DVID 2",112.18
same,DV (pitavastatin uptake into hepatocytes),"ID 36, AMT 100, TIME 20, DVID 2",166.1
same,DV (pitavastatin uptake into hepatocytes),"ID 36, AMT 100, TIME 25, DVID 2",175.81
same,DV (pitavastatin uptake into hepatocytes),"ID 36, AMT 100, TIME 45, DVID 2",174.89
same,DV = amount of measured pitavastatin and/or eltrombopag,"ID 36, pitavastatin AMT 100 nmol at TIME 15, TIME 15.25 min",56.55 nmol
same,DV = amount of measured pitavastatin and/or eltrombopag,"ID 36, pitavastatin AMT 100 nmol at TIME 15, TIME 15.5 min",71.62 nmol
same,DV = amount of measured pitavastatin and/or eltrombopag,"ID 36, pitavastatin AMT 100 nmol at TIME 15, TIME 16 min",101.21 nmol
same,DV = amount of measured pitavastatin and/or eltrombopag,"ID 36, pitavastatin AMT 100 nmol at TIME 15, TIME 17 min",112.18 nmol
same,DV = amount of measured pitavastatin and/or eltrombopag,"ID 36, pitavastatin AMT 100 nmol at TIME 15, TIME 20 min",166.1 nmol
same,DV = amount of measured pitavastatin and/or eltrombopag,"ID 36, pitavastatin AMT 100 nmol at TIME 15, TIME 25 min",175.81 nmol
same,DV = amount of measured pitavastatin and/or eltrombopag,"ID 36, pitavastatin AMT 100 nmol at TIME 15, TIME 45 min",174.89 nmol
same,DV = amount of measured pitavastatin,"pitavastatin alone, AMT 0.3 nmol, TIME 15.25 min (pitavastatin dosed at 15 min)",1 nmol and 0.64 nmol
same,DV = amount of measured pitavastatin,"pitavastatin alone, AMT 0.3 nmol, TIME 15.33 min (pitavastatin dosed at 15 min)",0.44 nmol
same,DV = amount of measured pitavastatin,"pitavastatin alone, AMT 0.3 nmol, TIME 17 min (pitavastatin dosed at 15 min)",3.74 nmol and 2.84 nmol and 2.05 nmol
same,DV = amount of measured pitavastatin,"pitavastatin alone, AMT 0.3 nmol, TIME 20 min (pitavastatin dosed at 15 min)",6.25 nmol and 3.66 nmol and 3.37 nmol
same,DV = amount of measured pitavastatin,"pitavastatin alone, AMT 0.3 nmol, TIME 25 min (pitavastatin dosed at 15 min)",6.32 nmol and 3.52 nmol and 3.44 nmol
same,DV = amount of measured pitavastatin,"pitavastatin alone, AMT 1 nmol, TIME 15.25 min (pitavastatin dosed at 15 min)",1.64 nmol and 3.21 nmol and 2.1 nmol
same,DV = amount of measured pitavastatin,"pitavastatin alone, AMT 1 nmol, TIME 45 min (pitavastatin dosed at 15 min)",9.06 nmol and 14.63 nmol and 8.88 nmol
same,DV = amount of measured pitavastatin,"pitavastatin alone, AMT 3 nmol, TIME 20 min (pitavastatin dosed at 15 min)",20.91 nmol and 34.93 nmol and 23.79 nmol
same,DV = amount of measured pitavastatin,"pitavastatin alone, AMT 3 nmol, TIME 25 min (pitavastatin dosed at 15 min)",23.83 nmol and 41.51 nmol and 27.45 nmol
same,DV = amount of measured pitavastatin,"pitavastatin alone, AMT 10 nmol, TIME 45 min (pitavastatin dosed at 15 min)",51.06 nmol and 92.94 nmol and 58.31 nmol
same,DV = amount of measured pitavastatin,"pitavastatin alone, AMT 30 nmol, TIME 15.5 min (pitavastatin dosed at 15 min)",39.76 nmol and 78.62 nmol and 44.72 nmol
same,DV = amount of measured pitavastatin,"pitavastatin alone, AMT 100 nmol, TIME 17 min (pitavastatin dosed at 15 min)",165.82 nmol
same,DV = amount of measured pitavastatin,"with eltrombopag, pitavastatin AMT 1 nmol, TIME 17 min (pitavastatin dosed at 15 min)",2.36 nmol and 4.35 nmol and 3.12 nmol
same,DV = amount of measured pitavastatin,"with eltrombopag, pitavastatin AMT 10 nmol, TIME 16 min (pitavastatin dosed at 15 min)",13.7 nmol
same,DV = amount of measured pitavastatin,"with eltrombopag, pitavastatin AMT 10 nmol, TIME 17 min (pitavastatin dosed at 15 min)",20.56 nmol
same,DV = amount of measured pitavastatin,"with eltrombopag, pitavastatin AMT 10 nmol, TIME 20 min (pitavastatin dosed at 15 min)",22.94 nmol
same,DV = amount of measured pitavastatin,"with eltrombopag, pitavastatin AMT 10 nmol, TIME 25 min (pitavastatin dosed at 15 min)",25.07 nmol
same,DV = amount of measured pitavastatin,"with eltrombopag, pitavastatin AMT 10 nmol, TIME 45 min (pitavastatin dosed at 15 min)",27.58 nmol
